## Measured properties of organic chemicals

Data: OPERA 2.9 data sets, kmansouri/OPERA on GitHub.

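The numbers are reported measurements, compiled and curated for the OPERA QSAR suite. A listed value is a point estimate from one report or more. How each value was measured is not recorded, so precision varies. Where a salt, mixture or single isomer is drawn, the source does not say that exactly this form was tested. Some entries may be limits or estimates that an upstream database listed as plain numbers.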

Melting points are in °C.
The boiling point refers to atmospheric pressure (760 mmHg), by the definition of the set.
logP is the log10 of the octanol-water partition coefficient; higher is more lipophilic.
Water solubility is log10 of mol/L, nominally at 25 °C; higher is more soluble.
Vapor pressure is log10 of mmHg; the set covers 15 to 30 °C, mostly 20 to 25 °C.
fu is the fraction unbound in human plasma, from 0 to 1.
Clint is human hepatic intrinsic clearance in µL/min per million cells; 0 means that no clearance was seen.

- Nc1ccc(O)cc1[N+](=O)[O-] [4-Amino-3-nitrophenol]: logP 1.01; water solubility -1.834 (log10 mol/L); log vapor pressure -4.913 (log10 mmHg)
- CC(C)O.COc1cc(NC(=O)/C(C#N)=C\Nc2ccc(OC)c(OCCCN3CCN(C)CC3)c2)c(Cl)cc1Cl.COc1cc(NC(=O)/C(C#N)=C\Nc2ccc(OC)c(OCCCN3CCN(C)CC3)c2)c(Cl)cc1Cl: melting point 167.6 °C; log vapor pressure -11.35 (log10 mmHg)
- CCCCC(CC)COP(=O)(O)OCC(CC)CCCC (stereo not drawn) [Bis(2-ethylhexyl) phosphate]: BP 240 °C; logP 2.67; water solubility -3.25 (log10 mol/L)
- CC1(C)C=C(C2(C)OCC(C)(C)CO2)CCC1: BP 254.6 °C; water solubility -4.526 (log10 mol/L); log vapor pressure -1.647 (log10 mmHg)
- NC(=O)NC(=O)[O-].[K+] [Potassium carbamoylcarbamate]: melting point 298.3 °C; logP -1.08
- CCCCCCCCCCCCCCCCCCP(=O)(O)OC [Methyl hydrogen octadecylphosphonate]: logP 7.7; water solubility -6.2 (log10 mol/L)
- CC(C)(CO)CO [2,2-Dimethylpropane-1,3-diol]: logP 0.12; log vapor pressure -2.006 (log10 mmHg)
- CCCCCCC(O)CCCCCCCCCCC(=O)NCCO (stereo not drawn) [Octadecanamide, 12-hydroxy-N-(2-hydroxyethyl)-]: melting point 202.6 °C; water solubility -4.621 (log10 mol/L)
- C[C@H](N)[C@H](O)c1cccc(O)c1 [Metaraminol]: water solubility -1.116 (log10 mol/L); plasma fu 0.55
- Cc1ccc(N2C(=O)C=CC2=O)cc1N1C(=O)C=CC1=O [Toluene-2,4-dimaleimide]: melting point 175 °C; water solubility -3.678 (log10 mol/L)
- CCCCCCCCCCCC1=NC(C)(C)CO1 [2-Oxazoline, 4,4-dimethyl-2-undecyl-]: melting point -25.69 °C; log vapor pressure -1.943 (log10 mmHg)
- Cc1nc2ccc(CN(C)c3ccc(C(=O)N[C@@H](CCC(=O)O)C(=O)O)s3)cc2c(=O)[nH]1 [Raltitrexed]: logP -1.2; water solubility -4.404 (log10 mol/L)
- CCCCCCCCCCCCCCCCCCCCCCOC(=O)CCCCCCCCCCCCCCCCCCCCC [Behenyl behenate]: melting point 74.25 °C; BP 395 °C; water solubility -7.113 (log10 mol/L)
- CCCCCC(C)(C)OC [2-Methoxy-2-methylheptane]: BP 160.5 °C; logP 3.7; water solubility -3.084 (log10 mol/L); log vapor pressure 0.929 (log10 mmHg)
- CCCCCCCC(=O)O[C@H]1CO[C@H]2[C@@H]1OC[C@H]2OC(=O)CCCCCCC [Isosorbide dicaprylate]: BP 260 °C; log vapor pressure -5.175 (log10 mmHg)
- O=c1c(-c2ccccc2)c1-c1ccccc1 [Diphenylcyclopropenone]: water solubility -3.485 (log10 mol/L); log vapor pressure -2.625 (log10 mmHg)
- Nc1c(OCCOC(=O)Oc2ccccc2)cc(O)c2c1C(=O)c1ccccc1C2=O: melting point 173 °C; logP 5.16; log vapor pressure -12.46 (log10 mmHg)
- CC1(CO)CC1CC1CC2CC2(C)C1(C)C (stereo not drawn): melting point -50.08 °C; logP 4.8; water solubility -4.767 (log10 mol/L); log vapor pressure -1.648 (log10 mmHg)
- CCCCC1CCC(=O)O1 (stereo not drawn) [4-Hydroxyoctanoic acid lactone]: melting point -50.2 °C; water solubility -1.245 (log10 mol/L)
- CCCCC/C=C\C=C\C(=O)OCC [Ethyl (2E,4Z)-deca-2,4-dienoate]: BP 248.8 °C; water solubility -4.44 (log10 mol/L)
- CCCCC1CCC(C2CCC(CCC)CC2)CC1 (stereo not drawn): melting point 97.1 °C; BP 352 °C; logP 4.4; water solubility -6.644 (log10 mol/L); log vapor pressure -4.679 (log10 mmHg)
- CCC[C@H]1CC[C@H](c2cc(C(C)(C)C)c(O)c(C(C)(C)C)c2)CC1: melting point 91.2 °C; water solubility -6.693 (log10 mol/L)
- CCCCCCC(=O)OCC(COC(=O)CCCCCC)(COC(=O)CCCCCC)COC(=O)CCCCCC: melting point -36 °C; water solubility -7.068 (log10 mol/L)
- NC(=O)c1ccc(N=C(O)c2ccc(N)cc2)cc1 [4-Amino-N-(4-carbamoylphenyl)benzene-1-carboximidic acid]: melting point 319 °C; logP 0.64; water solubility -4.916 (log10 mol/L)
- C[N+](C)(C)CCOP(=O)([O-])OC[C@H](O)CO [Choline glycerophosphate]: melting point 142 °C; log vapor pressure -10.06 (log10 mmHg)
- Nc1cc(Cl)c(NC2=NCCN2)c(Cl)c1: logP 1.4; water solubility -2.778 (log10 mol/L)
- CCCC(=O)OCn1cnc2c(cnn2COC(=O)CCC)c1=O: logP 1.82; water solubility -3.828 (log10 mol/L)
- CCN(CC)c1ccc(N=Nc2c(C#N)cc([N+](=O)[O-])cc2C#N)c(NC(C)=O)c1: melting point 252.4 °C; logP 4.9; water solubility -8.103 (log10 mol/L); log vapor pressure -9.319 (log10 mmHg)
- CCC(=O)OCc1ccccc1 [Benzyl propanoate]: logP 2.803; water solubility -2.78 (log10 mol/L); log vapor pressure -1.134 (log10 mmHg)
- C=C(C)C(=O)OCC1CC2CC1C1CCC(COC(=O)C(=C)C)C21 (stereo not drawn): melting point -59 °C; logP 5.8; water solubility -5.931 (log10 mol/L)
- CCCCCOC(=O)c1ccccc1O [Pentyl 2-hydroxybenzoate]: melting point -11.9 °C; logP 4.535; water solubility -4.31 (log10 mol/L); log vapor pressure -2.523 (log10 mmHg)
- Cc1ccc(C(=O)c2ccccc2)cc1 [4-methylbenzophenone]: plasma fu 0.0188; intrinsic clearance 118 µL/min/10^6 cells
- O=C(O)CCC1(CCC(=O)O)CCCC(CCC(=O)O)(CCC(=O)O)C1=O [2-Oxocyclohexane-1,1,3,3-tetrapropionic acid]: melting point 178.3 °C; water solubility -2.11 (log10 mol/L); log vapor pressure -6.011 (log10 mmHg)
- CCCCCCCCCCCCCCCCOC(=O)CC(O)(CC(=O)OCCCCCCCCCCCCCCCC)C(=O)OCCCCCCCCCCCCCCCC [Trihexadecyl citrate]: logP 7.27; water solubility -10.1 (log10 mol/L)
- COc1ccccc1NC(=O)C(N=Nc1ccccc1C(=O)O)C(C)=O (stereo not drawn): logP 2.01; water solubility -4.228 (log10 mol/L)